Measurements published in patent US9096555B2, “Methods for treating vascular leak syndrome” (Aerpio Therapeutics, Inc., priority 2009, dated 2015).

Experiments:
[1] = test system: IL-2 induced VLS; assay: IL-2 induced vascular leak syndrome in mice (blood pressure, shock, mortality); assay type: in vivo
Method: FIG. 1 depicts the effect of 4-{(S)-2-[(S)-2-(methoxycarbonylamino)-3-phenyl-propanamido]-2-[2-(thiophen-2-yl)thiazol-4-yl]ethyl}phenylsulfamic acid ammonium salt (inhibitor) on murine blood pressure during IL-2 induced VLS at low and high IL-2 dosing. […] A depicts the control sample; B depicts mice treated with 180,000 IU of IL-2 for 5 days; C depicts mice treated with 180,000 IU of IL-2 for 5 days and 40 mg/kg of D91 for the first 2 days, then at 20 mg/kg for 3 days; D depicts mice treated with 400,000 IU of IL-2 for 5 days; E depicts mice treated with 400,000 IU of IL-2 for 5 days and 40 mg/kg of D91 for the first 2 days, then at 20 mg/kg for 3 days.
FIG. 2 depicts the effect of 4-{(S)-2-[(S)-2-(methoxycarbonylamino)-3-phenyl-propanamido]-2-[2-(thiophen-2-yl)thiazol-4-yl]ethyl}phenylsulfamic acid ammonium salt, a Tie-2 signal amplifier, on IL-2 induced shock in mice. A depicts the control sample; B depicts mice treated with 180,000 IU of IL-2 for 5 days; C depicts mice treated with 180,000 IU of IL-2 for 5 days and 40 mg/kg of D91 for the first 2 days, then at 20 mg/kg for 3 days; D depicts mice treated with 400,000 IU of IL-2 for 5 days; E depicts mice treated with 400,000 IU of IL-2 for 5 days and 40 mg/kg of D91 for the first 2 days, then at 20 mg/kg for 3 days.
FIG. 3 depicts the effect of 4-{(S)-2-[(S)-2-(methoxycarbonylamino)-3-phenyl-propanamido]-2-[2-(thiophen-2-yl)thiazol-4-yl]ethyl}phenylsulfamic acid ammonium salt, a Tie-2 signal amplifier, on IL-2 induced murine mortality. […]
The animals were monitored for symptoms related to vascular leak syndrome seen in patients treated with high doses of IL-2, inter alia, blood pressure (hyportension/shock), viability (death), lung histology (VSL pathology) and serum cytokine etc. […]

[2] = test system: metastatic renal cell carcinoma (RCC) and metastatic melanoma; settings: cited from earlier work
[3] = high-dose interleukin-2 therapy, Elias et al. 2001

IL-2: immune system signaling molecule; high-dose interleukin-2 is an FDA approved treatment for metastatic renal cell carcinoma and metastatic melanoma [reference compound]
blood pressure ([1]; high dose of IL-2 (400,000 units per day, 5 days) without Tie-2 signal amplifier, FIG. 1): 0 mm Hg | animals showing clinical symptoms of shock ([1]; high doses of IL-2 (400,000 units per day, 5 days) without Tie-2 signal amplifier, FIG. 2): 60% | animals that died ([1]; high doses of IL-2 (400,000 units per day, 5 days) without Tie-2 signal amplifier, FIG. 3): 40% | duration of tumor response [2, 3]: exceed 10 years | subjects showing a tumor response [2, 3]: 23% | patients interrupting or discontinuing treatment due to VLS ([2]; human, in vivo): ≤ 65%
